# Molecular target: T1, SARS-CoV-2 PL^pro (PL^pro; PL^pro-His) (Severe acute respiratory syndrome coronavirus 2, UniProt P0DTD1)
# T1 construct: gene rep
# Test: enzyme kinetics, Lineweaver-Burk, FRET peptide
# Format: biochemical
smiles,measurement,value
Cc1ccc(N)cc1C(=O)N[C@H](C)c1cccc2ccccc12 [GRL0617],Ki,"For the Lineweaver-Burk plots of GRL0617, Jun9-13-7 and Jun9-13-9"
